Target: T1, HDAC8 (Homo sapiens, UniProt Q9BY41)
T1 sequence (Q9BY41 1-377): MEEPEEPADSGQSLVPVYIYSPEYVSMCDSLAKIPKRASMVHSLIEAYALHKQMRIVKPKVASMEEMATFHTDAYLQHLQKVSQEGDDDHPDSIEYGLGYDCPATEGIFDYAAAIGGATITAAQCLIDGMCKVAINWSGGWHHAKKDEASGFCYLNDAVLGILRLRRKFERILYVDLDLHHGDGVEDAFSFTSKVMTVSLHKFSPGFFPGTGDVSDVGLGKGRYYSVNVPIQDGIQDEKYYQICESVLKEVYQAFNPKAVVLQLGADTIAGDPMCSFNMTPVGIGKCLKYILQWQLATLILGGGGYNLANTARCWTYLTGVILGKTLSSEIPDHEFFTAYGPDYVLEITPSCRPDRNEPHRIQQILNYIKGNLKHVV
Test: Inhibition of HDAC8 deacetylase activity in vitro
Assay type: biochemical

O=C(CCCCCCC(=O)Nc1ccccc1)NO [SAHA, suberoylanilide hydroxamic acid, reference compound]
IC50: > 100 nM
